Experimental data reported in ChEMBL document CHEMBL3286361, “Design and discovery of flavonoid-based HIV-1 integrase inhibitors targeting both the active site and the interaction with LEDGF/p75” (Bioorg Med Chem, 2014).

Assay: Therapeutic index, ratio of CC50 for human C8166 cells to EC50 for HIV-1 3B infected in human C8166 cells
Format: cell-based
Settings: HIV-1 3B infected C8166 cells, read-out: Ratio CC50/EC50

With `O=c1cc(-c2ccccc2)oc2cc(O)c(O)c(O)c12` [BAICALEIN] the selectivity ratio was 18.
